This is an account of results in patent publication US4351948A, “Imidazole hydrazone derivatives” (priority 1980, dated 1982).

The nature of this data set: in vivo. The conditions noted are these: mouse, iv.

Usually LD50 stands for the dose expected to kill half of the subjects tested. Compound `Clc1ccc(C(Cn2ccnc2)OCc2ccsc2Cl)c(Cl)c1` (stereo not shown) [Tioconazole, 1-[2-[(2-Chloro-3-thienyl)methoxy]-2-(2,4-dichlorophenyl)ethyl]-1H-imidazole] came in with a median lethal dose (LD50) at 168 h of 188 mg/kg.
